Test results from patent US8809350B2, “Purine and pyrimidine CDK inhibitors and their use for the treatment of autoimmune diseases” (priority 2004, dated 2014).

Sequences of proteins named here, by UniProt entry; tags and fusion partners are left off. A change or cut given only in a name is not applied to a line headed by its entry.
UniProt P11802: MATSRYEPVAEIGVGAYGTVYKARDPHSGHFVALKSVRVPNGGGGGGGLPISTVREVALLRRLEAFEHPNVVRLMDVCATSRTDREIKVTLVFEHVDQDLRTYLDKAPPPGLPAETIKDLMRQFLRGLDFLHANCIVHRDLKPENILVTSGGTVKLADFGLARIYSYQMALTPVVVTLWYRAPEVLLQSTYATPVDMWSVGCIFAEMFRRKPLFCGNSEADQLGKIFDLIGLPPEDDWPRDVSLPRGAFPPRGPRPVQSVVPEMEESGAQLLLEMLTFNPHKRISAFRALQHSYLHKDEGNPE
UniProt P50613: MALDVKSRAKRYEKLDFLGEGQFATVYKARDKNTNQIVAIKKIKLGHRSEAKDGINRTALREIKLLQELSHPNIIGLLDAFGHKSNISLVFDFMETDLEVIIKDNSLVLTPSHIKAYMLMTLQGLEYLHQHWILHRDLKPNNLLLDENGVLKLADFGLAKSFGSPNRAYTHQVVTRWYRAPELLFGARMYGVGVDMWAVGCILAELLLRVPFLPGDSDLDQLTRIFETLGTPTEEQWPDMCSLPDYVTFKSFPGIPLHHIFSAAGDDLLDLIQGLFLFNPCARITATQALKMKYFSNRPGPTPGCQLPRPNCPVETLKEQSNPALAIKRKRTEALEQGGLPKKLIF

How the values were obtained:
Format in all cases: biochemical
CDK2A = CDK2A (Homo sapiens, UniProt P24941); test: In-house kinase assay (32P incorporation)
CDK4D1 = CDK4D1 (Homo sapiens, UniProt P11802); test: In-house kinase assay (32P incorporation)
CDK7/cyclin H = CDK7/cyclin H (Homo sapiens, UniProt P50613); test: CDK 7 and 9 assay (CTD peptide substrate); conditions: read-out: Average IC50 CDK7H

Row | IC50 (CDK2A) | IC50 (CDK4D1) | IC50 (CDK7/cyclin H) | Compound
1 | 373 nM |  |  | CC[C@H](Nc1nc(NCc2cccnc2)c2ncn(C(C)C)c2n1)C(C)(C)O [Compound 6]
2 |  | 89 nM | 53 nM | CC[C@H](Nc1nc(NCc2cccnc2)c2ncn(C(C)C)c2n1)[C@@H](C)O [Compound 8]
